Laboratory results reported in ChEMBL document CHEMBL4359846, “Design, synthesis, and antifibrosis evaluation of 4-(benzo-[c][1,2,5]thiadiazol-5-yl)-3(5)-(6-methyl- pyridin-2-yl)pyrazole and 3(5)-(6-methylpyridin- 2-yl)-4-(thieno-[3,2,-c]pyridin-2-yl)pyrazole derivatives” (Eur J Med Chem, 2019).

Experiments:
[1] = target: T1, TGF-beta receptor type-1 (Homo sapiens) (UniProt P36897); settings: 5 uM
T1 sequence (whole entry): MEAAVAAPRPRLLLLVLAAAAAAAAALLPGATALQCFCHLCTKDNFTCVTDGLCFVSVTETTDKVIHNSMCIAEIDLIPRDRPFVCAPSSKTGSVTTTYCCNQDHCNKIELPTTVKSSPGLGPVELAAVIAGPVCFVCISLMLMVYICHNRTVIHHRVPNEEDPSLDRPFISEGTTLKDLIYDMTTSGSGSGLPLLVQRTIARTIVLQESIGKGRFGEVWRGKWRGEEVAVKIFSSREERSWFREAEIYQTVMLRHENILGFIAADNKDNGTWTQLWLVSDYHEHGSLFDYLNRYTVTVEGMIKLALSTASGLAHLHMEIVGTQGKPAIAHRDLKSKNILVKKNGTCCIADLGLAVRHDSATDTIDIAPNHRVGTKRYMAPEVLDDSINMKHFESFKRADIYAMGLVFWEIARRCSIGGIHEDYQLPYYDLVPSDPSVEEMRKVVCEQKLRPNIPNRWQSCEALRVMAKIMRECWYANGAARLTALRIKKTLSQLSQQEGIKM

[2] = target: T1, TGF-beta receptor type-1 (Homo sapiens); settings: 5 uM; remark: listed apart in the source
[3] = target: T1, TGF-beta receptor type-1 (Homo sapiens); settings: 1.25 to 5 uM
[4] = target: T1, TGF-beta receptor type-1 (Homo sapiens); settings: 1.25 to 5 uM; remark: listed apart in the source
[5] = target: T1, TGF-beta receptor type-1 (Homo sapiens); settings: 1.25 to 5 uM; remark: listed apart in the source
[6] = target: T1, TGF-beta receptor type-1 (Homo sapiens); settings: 1.25 to 5 uM; remark: listed apart in the source
[7] = target: T1, TGF-beta receptor type-1 (Homo sapiens); assay: Inhibition of human recombinant GST-tagged ALK5 expressed in Sf9 insect cells at 10 uM using casein as substrate incubated for 60 mins in presence of [33P]-ATP by radiometric assay relative to control

Row | SMILES | inhibition [1] | inhibition [2] | inhibition [3] | inhibition [4] | inhibition [5] | inhibition [6] | inhibition [7] [%]
1 | Cc1cccc(-c2nn3c(c2-c2ccnc4ccc(C(N)=O)cc24)CCC3)n1 | Active | Active | – | – | – | – | –
2 | Cc1cccc(-c2nn(CC(=S)Nc3cccc(F)c3)cc2-c2ccc3nsnc3c2)n1 | – | – | Active | Active | Active | Active | –
3 | Cc1cccc(-c2nn(CC(=O)Nc3ccccc3)cc2-c2cc3cnccc3s2)n1 | – | – | Active | Active | Active | Active | 98 to 100

Activity calls are given as the source filed them. The rule behind the calls is not given here.
